Data reported in patent publication US8513418B2, “Substituted bicyclic methyl amine derivatives as sphingosine-1 phosphate receptors modulators” (Allergan, Inc., priority 2011, dated 2013).

The chains behind the UniProt entries cited, without tags or fusion partners.
UniProt P21453, whole entry: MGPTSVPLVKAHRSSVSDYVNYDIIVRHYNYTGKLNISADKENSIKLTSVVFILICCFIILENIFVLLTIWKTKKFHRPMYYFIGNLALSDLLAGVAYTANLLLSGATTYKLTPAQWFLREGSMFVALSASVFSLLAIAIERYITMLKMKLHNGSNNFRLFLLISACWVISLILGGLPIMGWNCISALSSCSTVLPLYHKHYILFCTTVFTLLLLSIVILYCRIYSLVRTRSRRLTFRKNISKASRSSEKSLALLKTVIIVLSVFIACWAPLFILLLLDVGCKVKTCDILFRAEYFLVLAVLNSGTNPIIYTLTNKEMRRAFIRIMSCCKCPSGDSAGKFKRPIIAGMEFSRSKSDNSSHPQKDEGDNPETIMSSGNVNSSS

Biological target: human S1P1 receptor (Homo sapiens, UniProt P21453)
Assay: GTP γ35S binding assay for S1P1 activity
Conditions: read-out: S1P1 EC50, membranes of cells stably expressing the S1P1 receptor
Method: Novel compounds were synthesized and tested for S1P1 activity using the GTP γ^35S binding assay. These compounds may be assessed for their ability to activate or block activation of the human S1P1 receptor in cells stably expressing the S1P1 receptor. GTP γ^35S binding was measured in the medium containing (mM) HEPES 25, pH 7.4, MgCl2 10, NaCl 100, dithitothreitol 0.5, digitonin 0.003%, 0.2 nM GTP γ^35S, and 5 μg membrane protein in a volume of 150 μl. Test compounds were included in the concentration range from 0.08 to 5,000 nM unless indicated otherwise. Membranes were incubated with 100 μM 5′-adenylylimmidodiphosphate for 30 min, and subsequently with 10 μM GDP for 10 min on ice. Drug solutions and membrane were mixed, and then reactions were initiated by adding GTP γ^35S and continued for 30 min at 25° C. Reaction mixtures were filtered over Whatman GF/B filters under vacuum, and washed three times with 3 mL of ice-cold buffer (HEPES 25, pH7.4, MgCl2 10 and NaCl 100). Filters were dried and mixed with scintillant, and counted for ^35S activity using a 8-counter. Agonist-induced GTP γ^35S binding was obtained by subtracting that in the absence of agonist. Binding data were analyzed using a non-linear regression method. In case of antagonist assay, the reaction mixture contained 10 nM […] in the presence of test antagonist at concentrations ranging from 0.08 to 5000 nM. […]

With `OCCNCc1ccc(CCCCCCc2ccccc2)c2cccnc12` the EC50 was 637 nM.
